The subject of this data set is NFκB reporter cells or IMG microglial cells. Kind of data set: Cytotoxicity assay (CellTiter-Glo Luminescent Cell Viability Assay). The settings on record: up to 12.5 μg/ml, 24 hours, NFκB reporter cells and IMG microglial cells, FIG. 11. For orientation: Cellular ATP, detected with luciferase, serves as a proxy for viable cell number.

As for “Ac- RRRKFT[Nal]]LD (cyclic) [Peptide A3-7]”, the cytotoxic effects entry is given as “no cytotoxic effects”.

The record behind these values is US20250353898A1, “SERPIN PEPTIDE DERIVATIVES AND METHODS OF USING THE SAME” (priority 2022, published 2025).
